Earlier results as cited in patent US6538019B1, “Functional emulsions” (Japan as represented by Director of National Food Research …, priority 2000, dated 2003).

Settings: cited from earlier work

catechin
Solubility with respect to water: slightly soluble in water
